Measurements from patent US20190374526A1, “Substituted Heterocyclic Compounds as Inhibitors of PRDM9” (Merck Sharp & Dohme Corp., priority 2018, published 2019).

Amino acid sequences for entries named in this document (tags omitted). Residues count along the entry.
UniProt Q9NQV7, 195-385 limits assumed: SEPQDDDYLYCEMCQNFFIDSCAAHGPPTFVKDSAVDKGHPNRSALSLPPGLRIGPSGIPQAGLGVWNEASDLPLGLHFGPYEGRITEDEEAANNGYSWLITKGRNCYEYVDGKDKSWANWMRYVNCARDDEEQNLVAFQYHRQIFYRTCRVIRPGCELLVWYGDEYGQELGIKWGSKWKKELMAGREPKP

Target: hPRDM9 (amino acids 195-385) (Homo sapiens, UniProt Q9NQV7)
Experiment: PRDM9 biochemical assay (radiometric, 3[H] methyl transfer from SAM to biotinylated histone H3 peptide)
Settings: read-out: PRDM9 IC50; 1 nM hPRDM9, 1 μM biotinylated H3(1-25)K4 peptide, 5 μM 3[H]-SAM, 55 μM un-labeled SAM, 25° C., 30 minutes
Description: The PRDM9 biochemical assay was carried out using a radiometric format involving the transfer of ^3[H] methyl group from S-adenosyl methionine (SAM) to a biotinylated histone H3 peptide (H3(1-25)K4). 10 mM compounds in DMSO were diluted 20 fold in assay buffer (10 mM Tris-HCl, pH 8.5, 10 mM DTT, and 0.01% Triton X-100) before adding […] to a well in a 384 well polypropylene microplate plate and adding 8 μl of reaction mix (1.25 nM hPRDM9 (amino acids 195-385), 1.25 μM biotinylated H3 peptide in assay buffer). The ^3[H]-SAM and cold SAM stock solutions were diluted to 50 μM and 550 μM respectively in assay buffer before aliquoting 1 μl of 50 μM ^3[H]-SAM, 550 μM SAM into each well to initiate the reaction. The assay was performed at 25° C. at the final concentrations of 1 nM hPRDM9, 1 μM peptide, 5 μM ^3[H]-SAM, and 55 μM un-labeled SAM in assay buffer. The reaction was quenched after 30 minutes by adding 25 μl 7.5 M Guanidine-HCl. Quenched reactions were transferred to streptavidin coated Flashplates, diluted two fold in assay buffer, incubated for 1 hour, and read on a Perkin Elmer Topcount instrument. Compound activity was expressed relative to activity of 0.5% (v/v) DMSO treated samples and fit to a four parameter logistic equation to determine IC50 values.

SMILES | IC50 [µM]
Cc1cc(N[C@@H]2C[C@H](C)N(c3nc(-c4cc(Cl)cc(Cl)c4)no3)C2)ccn1 | 10.7
Cc1cc(NCC2CCN(c3nc(-c4cc(Cl)cc(Cl)c4)no3)C2)ccn1 (centres unmarked) | 8
COc1cc(OC)cc(-c2noc(N3CCC4(CC5CCC(C4)N5c4ccnc(C)c4)C3)n2)c1 (centres unmarked) [Compound 158] | 2.63
Cc1cc(N2CCC(C)(CNc3nc(-c4cc(Cl)cc(Cl)c4)no3)C2)ccn1 (centres unmarked) | 42.6
Cc1cc(NC2CC3OC2CCC3Nc2nc(-c3cc(Cl)cc(Cl)c3)no2)ccn1 (centres unmarked) | 11.3
Cc1cc(NC2CCCCN(c3nc(-c4cc(Cl)cc(Cl)c4)no3)C2)ccn1 (centres unmarked) | 13.9
Cc1cc(N2CC3CCN(c4nc(-c5cc(Cl)cc(Cl)c5)no4)CC3C2)ccn1 (centres unmarked) | 27.9
Cc1cc(N[C@H]2CCN(c3nc(-c4cc(Cl)cc(Cl)c4)no3)C2)ccn1 | 4.33
Cc1cc(NCCC2CCCCN2c2nc(-c3cc(Cl)cc(Cl)c3)no2)ccn1 (centres unmarked) | 21.1
Cc1cc(NCC2COCCN(c3nc(-c4cc(Cl)cc(Cl)c4)no3)C2)ccn1 (centres unmarked) | 17.8
Cc1cc(NC2CCN(c3nc(-c4cc(Cl)cc(Cl)c4)no3)C2)ccn1 (centres unmarked) | 5.58
Cc1cc(NC[C@@H]2CN(c3nc(-c4cc(Cl)cc(Cl)c4)no3)CCO2)ccn1 | 1.56
Cc1cc(N2CCC3CN(c4nc(-c5cc(Cl)cc(Cl)c5)no4)CC32)ccn1 (centres unmarked) [Compound 39] | 17
Cc1cc(NCCC2CN(c3nc(-c4cc(Cl)cc(Cl)c4)no3)C2)ccn1 | 44.1
Cc1cc(N2C[C@H]3CCN(c4nc(-c5cc(Cl)cc(Cl)c5)no4)[C@H]3C2)ccn1 | 2.4
Cc1cc(N2CCC(C)(CNc3nc(-c4cc(Cl)cc(Cl)c4)no3)CC2)ccn1 | 0.441
Cc1cc(N[C@@H]2CCCN(c3nc(-c4cc(Cl)cc(Cl)c4)no3)C2)ccn1 | ≥ 50
Cc1cc(N2CCC3C(C2)CN3c2nc(-c3cc(Cl)cc(Cl)c3)no2)ccn1 (centres unmarked) | 25.7
Cc1cc(N2CCCCC2CCNc2nc(-c3cc(Cl)cc(Cl)c3)no2)ccn1 (centres unmarked) | 18.4
Cc1cc(N2C[C@H]3CCN(c4nc(-c5cc(Cl)cc(Cl)c5)no4)CC[C@H]3C2)ccn1 (relative stereo) | 0.35
Cc1cc(NCCC2CCN(c3nc(-c4cc(Cl)cc(Cl)c4)no3)CC2)ccn1 | 0.37
Cc1cc(N2C3CCC2CC2(CCN(c4nc(-c5cc(Cl)cc(Cl)c5)no4)C2)C3)ccn1 (centres unmarked) | 0.297
Cc1cc(NCCC(C)Nc2nc(-c3cc(Cl)cc(Cl)c3)no2)ccn1 (centres unmarked) | 36.9
